Source: EP0956864A1, “TISSUE FIBROSIS INHIBITOR” (KYOWA HAKKO KOGYO CO., LTD., priority 1996, dated 1998)

Assay: Arginase activity in blood (plasma) after administration to rats, half life
Format: in vivo, SD rats
Conditions: rat; 0.5 ml of 200 µg/ml per rat into penis veniplex; from plasma arginase activity
Description: 2. Kinetics of PEG modified rat arginase in rat blood
The change with the passage of time in arginase activity and arginine concentration in the blood of rats to which the PEG modified rat arginase was administered was investigated.
Male SD rats (body weight of 220 to 240 G) were purchased from Nippon SLC and tested after about 1 week breeding. Samples to be given were the rat arginase obtained in 3 of Example 2, the PEG modified rat arginase obtained in 1 of Example 4, and PBS containing 0.1 mM manganese chloride as a negative control. The rat arginase and PEG modified rat arginase were adjusted to a protein concentration of 200 µg/ml with PBS containing 0.1 mM manganese chloride. After inhalation anesthesia with diethyl ether, each sample was administered to penis veniplex at a dose of 0.5 ml per rat by means of a disposable plastic syringe (Terumo). […]
The arginase activity in the rat plasma obtained in 2 (2) of Example 4 was assayed according to the method of Baston et al. (Anal. Biochem., 191, 384 (1990)): ornithine produced by hydrolysis of the substrate arginine with arginase was quantitatively determined by amino acid analysis and the activity of arginase that produces 1 µmol of ornithine per minute at 37°C was defined as 1 U. The produced ornithine was quantitatively determined by the amino acid analysis as described in 2 (3) of Example 4.

B1: PEG modified rat arginase: recombinant rat arginase modified with methoxy polyethylene glycol propionic acid N-hydroxysuccinimide ester, average molecular weight about 5,000 (conjugate, UniProt P07824 1-323, looked up)
Arginase-1: MSSKPKPIEIIGAPFSKGQPRGGVEKGPAALRKAGLVEKLKETEYNVRDHGDLAFVDVPNDSPFQIVKNPRSVGKANEQLAAVVAETQKNGTISVVLGGDHSMAIGSISGHARVHPDLCVIWVDAHTDINTPLTTSSGNLHGQPVAFLLKELKGKFPDVPGFSWVTPCISAKDIVYIGLRDVDPGEHYIIKTLGIKYFSMTEVDKLGIGKVMEETFSYLLGRKKRPIHLSFDVDGLDPVFTPATGTPVVGGLSYREGLYITEEIYKTGLLSGLDIMEVNPTLGKTPEEVTRTVNTAVALTLSCFGTKREGNHKPETDYLKPPK
modifications: methoxy PEG 5000 conjugated
half life in blood: 45 h
